Laboratory results published in US10730889B2, “Amido spirocyclic amide and sulfonamide derivatives” (Forma TM, LLC, priority 2012, dated 2020).

The chains behind the UniProt entries cited, without tags or fusion partners. Where a name states a change or a piece, a line headed by the entry shows the natural chain unless it says otherwise.
UniProt P43490: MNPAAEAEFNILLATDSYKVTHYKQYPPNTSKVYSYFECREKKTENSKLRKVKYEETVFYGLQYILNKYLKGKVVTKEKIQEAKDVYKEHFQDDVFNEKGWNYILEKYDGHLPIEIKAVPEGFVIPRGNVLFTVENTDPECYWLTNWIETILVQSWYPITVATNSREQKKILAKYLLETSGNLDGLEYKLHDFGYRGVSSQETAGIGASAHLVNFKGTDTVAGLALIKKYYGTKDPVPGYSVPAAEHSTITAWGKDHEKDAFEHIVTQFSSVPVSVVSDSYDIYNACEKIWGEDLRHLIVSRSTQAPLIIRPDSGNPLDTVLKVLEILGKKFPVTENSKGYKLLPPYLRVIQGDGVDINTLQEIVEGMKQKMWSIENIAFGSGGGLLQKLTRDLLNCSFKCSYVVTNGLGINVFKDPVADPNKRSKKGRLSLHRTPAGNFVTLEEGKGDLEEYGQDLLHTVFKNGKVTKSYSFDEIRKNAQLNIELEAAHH

The molecules below were run against NAMPT (Homo sapiens (Human), UniProt P43490) (assay: Biochemical inhibition assay (NAMPT enzymatic reaction, NMN quantified by mass spectrometry)).

| IC50 [nM] | SMILES |
| --- | --- |
| 613 | CC(C)c1cc(C(=O)N2CCC3(CC2)CC3CNC(=O)c2cc3ccncc3o2)n[nH]1 (stereo not drawn) [Example 323, N-[[6-(5-isopropyl-1H-pyrazole-3-carbonyl)-6-azaspiro[2.5]octan-2-yl]methyl]furo[2,3-c]pyridine-2-carboxamide] |
| 137 | CC(C)c1n[nH]cc1C(=O)N1CCC2(CC1)CC2CNC(=O)c1cc2ccncc2o1 (stereo not drawn) [Example 324, N-[[6-(3-isopropyl-1H-pyrazole-4-carbonyl)-6-azaspiro[2.5]octan-2-yl]methyl]furo[2,3-c]pyridine-2-carboxamide] |
| 69.8 | CC(C)n1nccc1C(=O)N1CCC2(CC1)CC2CNC(=O)c1cc2ccncc2o1 (stereo not drawn) [Example 325, N-[[6-(2-isopropylpyrazole-3-carbonyl)-6-azaspiro[2.5]octan-2-yl]methy]furo[2,3-c]pyridine-2-carboxamide] |
| 33.9 | CCc1cc(C(=O)N2CCC3(CC2)CC3CNC(=O)c2cc3ccncc3o2)n(C)n1 (stereo not drawn) [Example 326, N-[[6-(5-ethyl-2-methyl-pyrazole-3-carbonyl)-6-azaspiro[2.5]octan-2-yl]methyl]furo[2,3-c]pyridine-2-carboxamide] |
| 159 | O=C(NCC1CC12CCN(C(=O)c1cc(C3CC3)on1)CC2)c1cc2ccncc2o1 (stereo not drawn) [Example 327, N-[[6-(5-cyclopropylisoxazole-3-carbonyl)-6-azaspiro[2.5]octan-2-yl]methyl]furo[2,3-c]pyridine-2-carboxamide] |
| 40 | O=C(NCC1CC12CCN(C(=O)c1cnoc1C1CC1)CC2)c1cc2ccncc2o1 (stereo not drawn) [Example 328, N-[[6-(5-cyclopropylisoxazole-4-carbonyl)-6-azaspiro[2.5]octan-2-yl]methyl]furo[2,3-c]pyridine-2-carboxamide] |
| 50 | Cc1n[nH]c(C)c1C(=O)N1CCC2(CC1)CC2CNC(=O)c1cc2ccncc2o1 (stereo not drawn) [Example 329, N-[[6-(3,5-dimethyl-1H-pyrazole-4-carbonyl)-6-azaspiro[2.5]octan-2-yl]methyl]furo[2,3-c]pyridine-2-carboxamide] |
| 80.6 | Cc1c(C(=O)N2CCC3(CC2)CC3CNC(=O)c2cc3ccncc3o2)cnn1C (stereo not drawn) [Example 330, N-[[6-(1,5-dmiethylpyrazole-4-carbonyl)-6-azaspiro[2.5]octan-2-yl]methyl]furo[2,3-c]pyridine-2-carboxamide] |
| 24.3 | Cc1ncoc1C(=O)N1CCC2(CC1)CC2CNC(=O)c1cc2ccncc2o1 (stereo not drawn) [Example 331, N-[[6-(4-methyloxazole-5-carbonyl)-6-azaspiro[2.5]octan-2-yl]methyl]furo[2,3-c]pyridine-2-carboxamide] |
| 16.9 | O=C(NCC1CC12CCN(C(=O)c1c[nH]nc1C1CC1)CC2)c1cc2ccncc2o1 (stereo not drawn) [Example 332, N-[[6-(3-cyclopropyl-1H-pyrazole-4-carbonyl)-6-azaspiro[2.5]oetan-2-yl]methyl]furo[2,3-c]pyridine-2-carboxamide] |
| 59.9 | Cc1nc(C(=O)N2CCC3(CC2)CC3CNC(=O)c2cc3ccncc3o2)c(C)o1 (stereo not drawn) [Example 334, N-[[6-(2,5-dimethyloxazole-4-carbonyl)-6-azaspiro[2.5]octan-2-yl]methyl]furo[2,3-c]pyridine-2-carboxamide] |
| 320 | Cc1nn(C)cc1C(=O)N1CCC2(CC1)CC2CNC(=O)c1cc2ccncc2o1 (stereo not drawn) [Example 335, N-[[6-(1,3-dimethylpyrazole-4-carbonyl)-6-azaspiro[2.5]octan-2-yl]methyl]furo[2,3-c]pyridine-2-carboxamide] |
| 37.8 | O=C(NCC1CC12CCN(C(=O)c1cnco1)CC2)c1cc2ccncc2o1 (stereo not drawn) [Example 336, N-[[6-(oxazole-5-carbonyl)-6-azaspiro[2.5]octan-2-yl]methyl]furo[2,3-c]pyridine-2-carboxamide] |
| 27.5 | O=C(NCC1CC12CCN(C(=O)c1cnoc1)CC2)c1cc2ccncc2o1 (stereo not drawn) [Example 337, N-[[6-(isoxazole-4-carbonyl)-6-azaspiro[2.5]octan-2-yl]methyl]furo[2,3-c]pyridine-2-carboxamide] |
| 169 | O=C(NCC1CC12CCN(C(=O)c1ncc[nH]1)CC2)c1cc2ccncc2o1 (stereo not drawn) [Example 338, N-[[6-(1H-imidazole-2-carbonyl)-6-azaspiro[2.5]octan-2-yl]methyl]furo[2,3-c]pyridine-2-carboxamide] |
| 13.8 | CN1CCN(c2ccc(C(=O)N3CCC4(CC3)CC4CNC(=O)c3cc4ccncc4o3)cc2)CC1 (stereo not drawn) [Example 339, N-[[6-[4-(4-Methylpiperazin-1-yl)benzoyl]-6-azaspiro[2.5]octan-2-yl]methyl]furo[2,3-c]pyridine-2-carboxamide] |
| 66.3 | O=C(NCC1CC12CCN(C(=O)c1cnc3[nH]cnc3c1)CC2)c1cc2ccncc2o1 (stereo not drawn) [Example 340, N-[[6-(3H-imidazo[4,5-b]pyridine-6-carbonyl)-6-azaspiro[2.5]octan-2-yl]methyl]furo[2,3-c]pyridine-2-carboxamide] |
| 162 | Cc1ccc(C(=O)N2CCC3(CC2)CC3CNC(=O)c2cc3ccncc3o2)nc1 (stereo not drawn) [Example 341, N-[[6-(5-methylpyridine-2-carbonyl)-6-azaspiro[2.5]octan-2-yl)methyl]furo[2,3-c]pyridine-2-carboxamide] |

| IC50 [nM] | SMILES |
| --- | --- |
| 97.3 | CN1CCN(Cc2cccc(C(=O)N3CCC4(CC3)CC4CNC(=O)c3cc4cnccc4[nH]3)c2)CC1 (stereo not drawn) [Example 344, N-[[6-[3-[(4-methylpiperazin-1-yl)methyl]benzoyl]-6-azaspiro[2.5]octan-2-yl]methyl]-1H-pyrrolo[3,2-c]pyridine-2-carboxamide] |
| 102 | CC1(C)CC1C(=O)N1CCC2(CC1)CC2CNC(=O)c1cc2cnccc2[nH]1 (stereo not drawn) [Example 348, N-[[6-(2,2-dimethylcyclopropanecarbonyl)-6-azaspiro[2.5]octan-2-yl]methyl]-1H-pyrrolo[3,2-c]pyridine-2-carboxamide] |
| 23.8 | O=C(NCC1CC12CCN(C(=O)c1cc(C3CC3)n[nH]1)CC2)N1Cc2ccncc2C1 (stereo not drawn) [Example 353, N-[[6-(3-cyclopropyl-1H-pyrazole-5-carbonyl)-6-azaspiro[2.5]octan-2-yl]methyl]-1,3-dihydropyrrolo[3,4-c]pyridine-2-carboxamide] |
| 28.8 | Cn1cc(-c2ccno2)c(C(=O)N2CCC3(CC2)CC3CNC(=O)N2Cc3ccncc3C2)n1 (stereo not drawn) [Example 354, N-[[6-(4-isoxazol-5-yl-1-methyl-pyrazole-3-carbonyl)-6-azaspiro[2.5]octan-2-yl]methyl]-1,3-dihydropyrrolo[3,4-c]pyridine-2-carboxamide] |
| 23.6 | N#Cc1ccccc1CC(=O)N1CCC2(CC1)CC2CNC(=O)N1Cc2ccncc2C1 (stereo not drawn) [Example 357, N-[[6-[2-(2-cyanophenyl)acetyl]-6-azaspiro[2.5]octan-2-yl]methyl]-1,3-dihydropyrrolo[3,4-c]pyridine-2-carboxamide] |
| 35.7 | CC1(NC(=O)N2CCC3(CC2)CC3CNC(=O)N2Cc3ccncc3C2)COC1 (stereo not drawn) [Example 361, N-[[6-[(3-methyloxetan-3-yl)carbamoyl]-6-azaspiro[2.5]octan-2-yl]methyl]-1,3-dihydropyrrolo[3,4-c]pyridine-2-carboxamide] |
| 50.5 | CN1CCN(c2ccc(C(=O)N3CCC4(CC3)CC4CNC(=O)c3cc4cnccc4[nH]3)cc2)CC1 (stereo not drawn) [Example 363, N-[[6-[4-(4-methylpiperazin-1-yl)benzoyl]-6-azaspiro[2.5]octan-2-yl]methyl]-1H-pyrrolo[3,2-c]pyridine-2-carboxamide] |
| 365 | CC1(C)CC1C(=O)N1CCC2(CC1)CC2CNC(=O)c1cc2cnccc2[nH]1 (stereo not drawn) [Example 364, N-[[6-(2,2-dimethylcyclopropanecarbonyl)-6-azaspiro[2.5]octan-2-yl]methyl]-1H-pyrrolo[3,2-c]pyridine-2-carboxamide] |
| 170 | O=C(NCC1CC12CCN(C(=O)c1cc(C3CC3)n[nH]1)CC2)c1cc2cnccc2[nH]1 (stereo not drawn) [Example 368, N-[[6-(3-cyclopropyl-1H-pyrazole-5-carbonyl)-6-azaspiro[2.5]octan-2-yl]methyl]-1H-pyrrolo[3,2-c]pyridine-2-carboxamide] |
| 167 | Cn1cc(-c2ccno2)c(C(=O)N2CCC3(CC2)CC3CNC(=O)c2cc3cnccc3[nH]2)n1 (stereo not drawn) [Example 369, N-[[6-(4-isoxazol-5-yl-1-methyl-pyrazole-3-carbonyl)-6-azaspiro[2.5]octan-2-yl]methyl]-1H-pyrrolo[3,2-c]pyridine-2-carboxamide] |
| 169 | Cc1nc(C)c(C(=O)N2CCC3(CC2)CC3CNC(=O)c2cc3cnccc3[nH]2)o1 (stereo not drawn) [Example 370, N-[[6-(2,4-dimethyloxazole-5-carbonyl)-6-azaspiro[2.5]octan-2-yl]methyl]-1H-pyrrolo[3,2-c]pyridine 2-carboxamide] |
| 8.88 | CC1(OC(=O)N2CCC3(CC2)CC3CNC(=O)N2Cc3ccncc3C2)CCOC1 (stereo not drawn) [Example 375] |
| 241 | CC(C)(C)CS(=O)(=O)N1CCC2(CC1)CC2CNC(=O)c1cc2ccncc2o1 (stereo not drawn) [Example 378, N-[[6-(2,2-dimethylpropylsulfonyl)-6-azaspiro[2.5]octan-2-yl]methyl]furo[2,3-c]pyridine-2-carboxamide] |
| 1470 | CC(C)(C)CS(=O)(=O)N1CCC2(CC1)CC2CNC(=O)c1cc2cnccc2[nH]1 (stereo not drawn) [Example 379, N-[[6-(2,2-dimethylpropylsulfonyl)-6-azaspiro[2.5]octan-2-yl]methyl]-1H-pyrrolo[3,2-c]pyridine-2-carboxamide] |
| 82.4 | Cc1nc(C)c(C(=O)N2CCC3(CC2)CC3CNC(=O)c2cc3ccncc3o2)o1 (stereo not drawn) [Example 385, N-[[6-(2,4-dimethyloxazole-5-carbonyl)-6-azaspiro[2.5]octan-2-yl]methyl]furo[2,3-c]pyridine-2-carboxamide] |
| 724 | CC(C)(O)COCC(=O)N1CCC2(CC1)CC2CNC(=O)c1cc2cnccc2[nH]1 (stereo not drawn) [Example 387, N-[[6-[2-(2-hydroxy-2-methyl-propoxy)acetyl]-6-azaspiro[2.5]octan-2-yl]methyl]-1H-pyrrolo[3,2-c]pyridine-2-carboxamide] |
| 34 | Cc1nc(C(F)(F)F)c(C(=O)N2CCC3(CC2)CC3CNC(=O)N2Cc3ccncc3C2)s1 (stereo not drawn) [Example 388] |
| 21.6 | CC1(C)CC1C(=O)N1CCC2(CC1)CC2CNC(=O)N1Cc2ccncc2C1 (stereo not drawn) [Example 389] |
